Results on 4 substances are retold here after US8092833B2, “Compositions containing inclusion complexes” (California Institute of Technology, priority 2000, dated 2012).

Protein sequences, listed by entry. Tags and fused reporters are not part of them.
UniProt P02786, whole entry: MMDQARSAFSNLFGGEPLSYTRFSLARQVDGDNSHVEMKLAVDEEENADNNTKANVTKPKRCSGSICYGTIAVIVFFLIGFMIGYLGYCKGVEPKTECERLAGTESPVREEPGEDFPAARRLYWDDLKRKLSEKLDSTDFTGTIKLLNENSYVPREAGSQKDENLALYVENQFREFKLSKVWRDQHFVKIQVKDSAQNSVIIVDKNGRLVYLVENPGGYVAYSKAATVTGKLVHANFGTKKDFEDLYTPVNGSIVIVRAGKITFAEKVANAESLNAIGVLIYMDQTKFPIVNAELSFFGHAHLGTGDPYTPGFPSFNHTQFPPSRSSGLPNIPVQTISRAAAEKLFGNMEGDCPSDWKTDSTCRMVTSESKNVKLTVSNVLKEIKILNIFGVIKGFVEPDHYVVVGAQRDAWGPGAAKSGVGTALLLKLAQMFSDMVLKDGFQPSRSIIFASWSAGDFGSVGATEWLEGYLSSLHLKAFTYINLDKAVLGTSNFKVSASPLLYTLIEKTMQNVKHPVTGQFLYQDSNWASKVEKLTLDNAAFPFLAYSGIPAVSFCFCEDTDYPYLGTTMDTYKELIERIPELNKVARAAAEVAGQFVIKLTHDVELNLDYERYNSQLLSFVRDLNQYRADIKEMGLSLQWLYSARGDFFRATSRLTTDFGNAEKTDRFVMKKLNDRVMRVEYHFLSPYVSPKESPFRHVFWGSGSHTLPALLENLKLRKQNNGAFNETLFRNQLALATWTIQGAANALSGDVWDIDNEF

Data set [1] is described as follows: Iron-loading efficiency of transferrin compounds (A465/A280). Format: physicochemical. On the procedure:
40 mg of apo-transferrin-based compound (apo-transferrin or apo-transferrin-PEG-Ad) was dissolved in 700 μL of dH2O. To this solution was added 200 μL of 5 mM Iron Citrate and 100 μL of 84 mg/mL NaHCO3. This solution was allowed to stand for 2-3 hours and then dialyzed against PBS overnight. The iron-loading efficiency was calculated by determining ratio of absorbance at 465 nm (from the oxidized iron) to the ratio of absorbance at 280 nm (from the tryptophan residues in the protein) and normalizing to the A465/A280 ratio of commercially available holo-transferrin. The iron loading efficiency for transferrin, transferrin in the oxidation buffer (sodium acetate pH 5) and freshly oxidized transferrin was determined and shown in FIG. 21.
Apo-transferrin and Tf-PEG-Ad were iron-loaded according to the procedure described in Example 55. The extent of iron-loading was quantified as described. The iron-loading efficiency of Tf-PEG-Ad synthesized by coupling via lysine groups was nearly 100%.

The target in data set [2] is T1, transferrin receptors on PC3 cells (Homo sapiens, UniProt P02786).
T1 construct: endogenous in cells; host or cells: PC3 cells
The data set is described as follows: Competition with FITC-transferrin for transferrin receptors on PC3 cells, FACS. It counts as binding. The note with it: 250 nM FITC-Tf. The protocol: PC3 cells were incubated with 250 nM fluorescein-transferrin (FITC-TF) with various amounts of unlabeled transferrin and transferrin-PEG-Ad. FITC-hTF cell association was assessed by FACS analysis.
PC3 cells were plated in 6 well plates at 125,000 cells/ml. After 24 hours, the cells were exposed to 250 nM FITC-Tf mixed with various concentrations of hTf, hTf-PEG-Ad (synthesized by oxidation of hTf), hTf-PEG-Ad (synthesized by VS-lysine reaction and purified) and hTf-(PEG-Ad)2 (synthesized by VS-lysine reaction and purified). Uptake after 20 minutes exposure was determined by FACS. Unlike the Tf-PEG-AD synthesized by transferrin oxidation, the Tf-PEG-Ad compounds synthesized by lysine coupling competes effectively with the FITC-Tf for receptors on the PC3 cell surfaces.

Substance “Tf-PEG-Ad: human transferrin coupled via lysine groups to Vinylsulfone-PEG3400-Ad” returned an iron-loading efficiency in data set [1] (synthesized by coupling via lysine groups, normalized to holo-transferrin) of roughly 100%.
With “freshly oxidized transferrin: transferrin oxidized with sodium periodate”, the “effect of oxidization on iron loading efficiency” value in data set [1] is given as “reduces the iron loading efficiency”.
“transferrin-PEG-Ad: human transferrin oxidized at carbohydrate groups and coupled to Ad-PEG5000-NH-NH2”: the “competition with FITC-transferrin for receptors” value in data set [2] is “competes very poorly”.
On the same count and under the same terms, with “transferrin: unlabeled human transferrin” the entry was “competes very efficiently”.
